The source of these data is US5721106A, “In Vitro method for screening β-amyloid deposition” (Regents of the University of Minnesota, priority 1994, dated 1998).

One assay has as its target silk. Description: deposition of 30 pM tracer onto ceilan katia yarn, pH 8.5, 37° C., gamma counting.
The target in assay [1] is amyloid plaques in Alzheimer's disease brain tissue (homogenates and thin sections). As to the kind of experiment: filter binding on AD tissue homogenates, gamma counting.

In the case of “^125 I-βA(1-40)-OH (^125 I-labelled human β-amyloid peptide^1-40)”, the on-rate (cpm ^125 I/hour/mg silk) in the assay with silk turned out to be 153. In assay [1], the percent of tracer bound turned out to be 20%.
